Assays:
Settings in all cases: human
Calu-3 cells = test system: Calu-3 cells
HEK293T = test system: HEK293T
HepG2 = test system: HepG2

NC(=O)C1CCN(CCCN2c3ccccc3Sc3ccc(Cl)cc32)CC1 [Pipamazine]
Calu-3 uninfected cytotoxicity Sinf Average (Calu-3 cells): -102%
HEK293T 72-hour cytotoxicty Sinf Average (HEK293T): -104%
HepG2 72-hour cytotoxicity Sinf Average (HepG2): -100%
